# Laboratory results published in US10150760B2, “Compounds for use in preparing heterocyclic triazole agonists of the APJ receptor” (AMGEN INC., priority 2016, dated 2018).
# Protein sequences, listed by entry. Tags and fused reporters are not part of them. Lines headed by an entry give the natural chain unless they say otherwise; changes in a name come on top.
# UniProt P35414: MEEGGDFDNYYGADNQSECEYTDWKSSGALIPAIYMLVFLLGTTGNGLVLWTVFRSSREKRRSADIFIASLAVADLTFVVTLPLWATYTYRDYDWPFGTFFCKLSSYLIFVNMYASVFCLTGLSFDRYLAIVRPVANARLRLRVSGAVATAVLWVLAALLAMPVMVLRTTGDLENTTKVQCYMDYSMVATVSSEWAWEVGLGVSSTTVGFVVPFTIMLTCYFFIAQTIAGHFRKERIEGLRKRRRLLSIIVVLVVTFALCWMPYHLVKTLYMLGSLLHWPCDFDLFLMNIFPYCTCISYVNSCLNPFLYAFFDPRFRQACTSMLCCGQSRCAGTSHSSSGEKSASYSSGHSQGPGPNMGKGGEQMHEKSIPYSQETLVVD
# What was measured:
# [1] = target: human APJ receptor expressed in the CHO cell line (Homo sapiens (Human), UniProt P35414); details: fixed concentration of pyr apelin-13, different concentrations of AngII, human APJ expressed alone
# APJ receptor = APJ receptor (Homo sapiens (Human), UniProt P35414); details: Kawamata et al and Hosoya et al; cited from earlier work
Substance,cooperativity: AngII-induced IP1 accumulation [1],in vitro affinity to the APJ receptor relative to apelin-36 (APJ receptor) [fold]
pyroglutamated apelin-13 [pyr apelin-13],no positive cooperativity observed,–
Apelin-13,–,~3.5
